1 substance from US20230063420A1 can be followed below.

The assay addresses GLP-1 receptor (Example 19, species not stated). The assay can be described thus: cell-based or functional assay.

With exenatide (peptide), the pEC50, cAMP accumulation, 0% HSA was 12.2 -log M; the pEC50, cAMP accumulation, 0.1% HSA is 12.2 -log M; the pEC50, cAMP accumulation, 4% HSA was 12.1 -log M.
